The target of this experiment is Delta-type opioid receptor (Mus musculus, UniProt P32300). In words: Inhibitory concentration against delta opioid receptor of electrically induced smooth muscle contraction of mouse vas deferens. The class given is functional.

Chains of the proteins cited; added tags and fusions are not shown.
UniProt P32300, whole entry: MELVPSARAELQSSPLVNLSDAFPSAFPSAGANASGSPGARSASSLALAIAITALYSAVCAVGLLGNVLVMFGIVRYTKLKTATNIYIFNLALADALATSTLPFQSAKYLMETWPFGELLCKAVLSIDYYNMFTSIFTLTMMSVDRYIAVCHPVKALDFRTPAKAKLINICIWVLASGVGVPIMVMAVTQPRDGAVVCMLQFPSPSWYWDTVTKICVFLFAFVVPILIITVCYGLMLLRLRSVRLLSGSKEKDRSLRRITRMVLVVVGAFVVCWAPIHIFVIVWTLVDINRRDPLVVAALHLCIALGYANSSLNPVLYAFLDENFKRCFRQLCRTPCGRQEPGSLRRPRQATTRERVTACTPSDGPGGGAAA

The IC50 is the concentration needed to halve the response being measured. Molecule `CC(C)[C@H](NC(=O)[C@H](CC(=O)O)NC(=O)[C@H](Cc1ccccc1)NC(=O)[C@@H](C)NC(=O)[C@@H](N)Cc1ccc(O)cc1)C(=O)N[C@H](C(=O)NCC(N)=O)C(C)C` [DELTORPHIN C] displayed an IC50 of 0.16 nM.

(Values after ChEMBL document CHEMBL1127487, “Cyclic enkephalin analogs with exceptional potency at peripheral delta opioid receptors” (J Med Chem, 1994).)
